Target: T1, CYP2C19 (Homo sapiens, UniProt P33261)
T1 construct: recombinant CYP450, commercial (Research Institute for Liver Diseases, Shanghai); P450-Glo Screening System (Promega)
Experiment: P450-Glo inhibition assay, recombinant CYP
Assay type: biochemical
Conditions: read-out: IC50 (μM) (95% Confidence Interval) / Positive Control ^a
From the text: P450-Glo inhibition assay, recombinant CYP on CYP2C19

By UniProt entry, the sequences of proteins in these tests, tags left out.
UniProt P33261, whole entry: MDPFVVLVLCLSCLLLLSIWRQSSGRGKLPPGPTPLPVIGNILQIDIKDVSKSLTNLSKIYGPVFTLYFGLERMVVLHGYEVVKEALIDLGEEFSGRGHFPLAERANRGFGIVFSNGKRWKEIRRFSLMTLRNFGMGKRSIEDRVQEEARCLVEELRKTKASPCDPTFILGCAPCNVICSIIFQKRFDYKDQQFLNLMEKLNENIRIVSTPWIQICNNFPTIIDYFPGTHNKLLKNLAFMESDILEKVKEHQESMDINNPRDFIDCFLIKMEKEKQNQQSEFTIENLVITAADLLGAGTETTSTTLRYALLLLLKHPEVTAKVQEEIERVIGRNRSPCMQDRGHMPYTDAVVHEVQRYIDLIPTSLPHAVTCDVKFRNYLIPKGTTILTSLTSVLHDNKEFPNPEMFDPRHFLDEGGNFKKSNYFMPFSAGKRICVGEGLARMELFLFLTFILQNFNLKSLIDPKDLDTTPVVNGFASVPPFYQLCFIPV

- IC50: 6 µM
SMILES: Cc1c(C)c2c(c(C)c1O)CCC(C)(COc1ccc(CC3SC(=O)NC3=O)cc1)O2 (stereo not shown) [troglitazone, reference compound]

From paper PMC6102536, “A Metabolism-Based Synergy for Total Coumarin Extract of Radix Angelicae Dahuricae and Ligustrazine on Migraine Treatment in Rats” (Molecules : A Journal of Synthetic Chemistry and Natural …, 2018)
